Source: ChEMBL document CHEMBL1153825, “From a natural product lead to the identification of potent and selective benzofuran-3-yl-(indol-3-yl)maleimides as glycogen synthase kinase 3beta inhibitors that suppress proliferation and survival of pancreatic cancer cells” (J Med Chem, 2009)

Tests used:
Type in all cases: functional, cell-based
BXPC-3 = assay: Growth inhibition of human BxPC3 cells after 72 hrs by MTS assay; conditions: BXPC-3, 72 h
HuP-T3 = assay: Growth inhibition of human HUPT3 cells after 72 hrs by MTS assay; conditions: HuP-T3, 72 h
MIA PaCa-2 = assay: Growth inhibition of human MIAPaCa2 cells after 72 hrs by MTS assay; conditions: MIA PaCa-2, 72 h

## Cn1cc(C2=C(c3coc4ccc(F)cc34)C(=O)NC2=O)c2cc(I)ccc21
BXPC-3
  IC50: 42 µM
HuP-T3
  IC50: 42 µM
MIA PaCa-2
  IC50: 28 µM

## Cn1cc(C2=C(c3coc4ccccc34)C(=O)NC2=O)c2cc(I)ccc21
BXPC-3
  IC50: 33 µM
